Test results as given in ChEMBL document CHEMBL2157973, “An efficient synthesis of 3-OBn-6β,14-epoxy-bridged opiates from naltrexone and identification of a related dual MOR inverse agonist/KOR agonist” (Bioorg Med Chem Lett, 2012).

Amino acid sequences for entries named in this document (tags omitted).
UniProt P35372, whole entry: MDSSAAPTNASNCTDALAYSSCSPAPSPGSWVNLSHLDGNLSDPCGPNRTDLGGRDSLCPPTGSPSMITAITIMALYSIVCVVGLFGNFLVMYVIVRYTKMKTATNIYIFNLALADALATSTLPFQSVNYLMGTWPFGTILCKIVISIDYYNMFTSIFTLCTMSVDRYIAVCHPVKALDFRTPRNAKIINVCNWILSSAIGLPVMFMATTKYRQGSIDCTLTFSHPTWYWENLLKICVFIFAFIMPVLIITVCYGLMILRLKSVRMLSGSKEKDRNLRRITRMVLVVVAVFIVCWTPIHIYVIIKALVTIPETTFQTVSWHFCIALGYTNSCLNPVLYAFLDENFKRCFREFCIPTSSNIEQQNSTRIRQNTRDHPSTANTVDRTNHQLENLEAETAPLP

Molecular target: Mu-type opioid receptor (Homo sapiens, UniProt P35372)
Test: Inverse agonist activity at human recombinant mu opioid receptor expressed in CHO cells after 3 hrs by [35S]GTPgammaS binding assay
Type: functional, cell-based

Question: Which EC50 does the source give for Oc1ccc2c3c1O[C@H]1[C@H](O)CC[C@@]4(O)[C@@H](C2)N(CC2CC2)CC[C@]314 here?
Answer: The EC50 was 1.2 nM.
